Measured values taken from US10858410B2, “Glycosylated peptides with pseudoproline residues and having enhanced half-lives and ability to cross the blood brain barrier” (ARIZONA BOARD OF REGENTS ON BEHALF OF THE UNIVERSITY OF …, priority 2015, dated 2020).

Target: T1, human PAC1 receptors (Homo sapiens, UniProt P41586)
T1 construct: host or cells: CHO (clonal line PAC1-CHO)
T1 sequence (P41586 21-468): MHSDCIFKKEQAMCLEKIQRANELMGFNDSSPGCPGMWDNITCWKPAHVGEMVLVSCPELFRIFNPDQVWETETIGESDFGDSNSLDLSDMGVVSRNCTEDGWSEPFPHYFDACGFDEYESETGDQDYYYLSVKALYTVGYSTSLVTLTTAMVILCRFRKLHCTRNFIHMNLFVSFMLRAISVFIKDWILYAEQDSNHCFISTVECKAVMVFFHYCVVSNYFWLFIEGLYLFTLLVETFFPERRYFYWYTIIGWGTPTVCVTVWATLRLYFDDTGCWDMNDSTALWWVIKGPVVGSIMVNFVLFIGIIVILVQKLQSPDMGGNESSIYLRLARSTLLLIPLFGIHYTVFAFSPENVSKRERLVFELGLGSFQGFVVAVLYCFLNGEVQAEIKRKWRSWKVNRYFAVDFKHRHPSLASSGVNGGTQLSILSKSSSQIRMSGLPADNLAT
Assay: FLIPR calcium flux, agonist mode, PAC1-CHO cells
Format: cell-based

`CC[C@H](C)[C@H](NC(=O)CNC(=O)[C@H](CC(=O)O)NC(=O)[C@H](CO)NC(=O)[C@@H](N)Cc1c[nH]cn1)C(=O)N[C@@H](Cc1ccccc1)C(=O)N[C@H](C(=O)N[C@@H](CC(=O)O)C(=O)N[C@@H](CO)C(=O)N[C@@H](Cc1ccc(O)cc1)C(=O)N[C@@H](CO)C(=O)N[C@@H](CCCNC(=N)N)C(=O)N[C@@H](Cc1ccc(O)cc1)C(=O)N[C@@H](CCCNC(=N)N)C(=O)N[C@@H](CCCCN)C(=O)N[C@@H](CCC(N)=O)C(=O)N[C@@H](CCSC)C(=O)N[C@@H](C)C(=O)N[C@H](C(=O)N[C@@H](CCCCN)C(=O)N[C@@H](CCCCN)C(=O)N[C@@H](Cc1ccc(O)cc1)C(=O)N[C@@H](CC(C)C)C(=O)N[C@@H](C)C(=O)N[C@@H](C)C(=O)N[C@H](C(=O)N[C@@H](CO[C@@H]1O[C@H](CO)[C@@H](O)[C@H](O)[C@H]1O)C(N)=O)C(C)C)C(C)C)[C@@H](C)O` [PACAP1-27-S-G] showed an EC50 of 5.68 ± 2.3 nM and an Emax of 102 ± 1.6%.
